Source: patent US7276339B2 (H. Lundbeck A/S, priority 1998, dated 2007)

Chains of the proteins cited; added tags and fusions are not shown. Lines headed by an entry give the natural chain unless they say otherwise; changes in a name come on top.
UniProt Q9EP86: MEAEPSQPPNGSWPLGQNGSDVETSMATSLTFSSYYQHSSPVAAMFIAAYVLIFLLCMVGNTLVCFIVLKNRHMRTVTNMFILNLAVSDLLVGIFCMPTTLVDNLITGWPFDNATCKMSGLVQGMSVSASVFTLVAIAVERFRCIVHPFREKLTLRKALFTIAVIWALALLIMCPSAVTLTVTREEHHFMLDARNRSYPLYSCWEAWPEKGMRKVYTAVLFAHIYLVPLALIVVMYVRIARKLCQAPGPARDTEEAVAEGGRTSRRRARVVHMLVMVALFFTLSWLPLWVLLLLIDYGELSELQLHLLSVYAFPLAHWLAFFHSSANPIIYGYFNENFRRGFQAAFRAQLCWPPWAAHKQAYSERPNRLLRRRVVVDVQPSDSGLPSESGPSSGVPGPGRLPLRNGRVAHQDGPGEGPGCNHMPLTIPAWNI

Biological target: rat NPFF1 receptor (Rattus norvegicus, UniProt Q9EP86)
Assay: [125I]D-Tyr-NPFF radioligand binding, membranes of COS-7 cells transiently expressing cloned rat NPFF1
Set-up: expressed in transfected cells; host or cells: COS-7 (transient)
Conditions: competition of [125I]D-Tyr-NPFF binding; COS-7 membranes
Procedure: Transfected cells from culture flasks are scraped into 5 ml of 20 mM Tris-HCl, 5 mM EDTA, pH 7.5, and lysed by sonication. The cell lysates are centrifuged at 1000 rpm for 5 min. at 4° C., and the supernatant is centrifuged at 30,000×g for 20 min. at 4° C. […] Optimal membrane suspension dilutions, defined as the protein concentration required to bind less than 10% of the added radioligand, […], unlabeled compounds, and binding buffer to a final volume of 250 μl. In equilibrium saturation binding assays membrane preparations are incubated in the presence of increasing concentrations of [^3H]-labeled compound. […] Competition assay: 50 pM radioligand, 10-12 points. Binding reaction mixtures are incubated for 2 hr at 25° C., and the reaction stopped by filtration through a double layer of GF filters treated with 0.1% polyethyleneimine, using a cell harvester. Wash buffer: 50 mM Tris-HCl, 0.1% BSA. Radioactivity may be measured by scintillation counting and data are analyzed by a computerized non-linear regression program. Non-specific binding is defined as the amount of radioactivity remaining after incubation of membrane protein in the presence of 1 μM final concentration […]. Protein concentration may be measured by the Bradford method using Bio-Rad Reagent, with bovine serum albumin as a standard. […]

CC(C)C[C@H](NC(=O)CNC(=O)[C@H](C)NC(=O)[C@H](CC(C)C)NC(=O)[C@H](CCCNC(=N)N)NC(=O)[C@H](Cc1c[nH]cn1)NC(=O)[C@@H](NC(=O)[C@@H](NC(=O)[C@@H]1CSSC[C@H](NC(=O)[C@H](C)N)C(=O)N[C@@H](CC(=O)O)C(=O)N[C@@H]([C@@H](C)O)C(=O)N[C@@H](C)C(=O)N[C@@H]([C@@H](C)O)C(=O)N1)C(C)C)[C@@H](C)O)C(=O)N[C@@H](CC(C)C)C(=O)N[C@@H](CO)C(=O)N[C@@H](CCCNC(=N)N)C(=O)N[C@@H](CO)C(=O)NCC(=O)NCC(=O)N[C@H](C(=O)N[C@H](C(=O)N[C@@H](CCCCN)C(=O)N[C@@H](CC(N)=O)C(=O)N[C@@H](CC(N)=O)C(=O)N[C@@H](Cc1ccccc1)C(=O)N[C@H](C(=O)N1CCC[C@H]1C(=O)N[C@H](C(=O)N[C@@H](CC(N)=O)C(=O)N[C@H](C(=O)NCC(=O)N[C@@H](CO)C(=O)N[C@@H](CCCCN)C(=O)N[C@@H](C)C(=O)N[C@@H](Cc1ccccc1)C(N)=O)C(C)C)[C@@H](C)O)C(C)C)C(C)C)C(C)C [CGRP]
pKi for cloned rat NPFF1 receptor binding in COS-7 cells, MEAN: ≤ 5
